# Measurements from patent US12043613B2, “Inhibitors of SARM1” (Disarm Therapeutics, Inc., priority 2020, dated 2024).
# Amino acid sequences for entries named in this document (tags omitted). Chains listed by the source or under a name are the forms on record and can include a tag or linker. Residues count along the entry.
# UniProt Q6SZW1, 28-724 with tags or gaps limits assumed: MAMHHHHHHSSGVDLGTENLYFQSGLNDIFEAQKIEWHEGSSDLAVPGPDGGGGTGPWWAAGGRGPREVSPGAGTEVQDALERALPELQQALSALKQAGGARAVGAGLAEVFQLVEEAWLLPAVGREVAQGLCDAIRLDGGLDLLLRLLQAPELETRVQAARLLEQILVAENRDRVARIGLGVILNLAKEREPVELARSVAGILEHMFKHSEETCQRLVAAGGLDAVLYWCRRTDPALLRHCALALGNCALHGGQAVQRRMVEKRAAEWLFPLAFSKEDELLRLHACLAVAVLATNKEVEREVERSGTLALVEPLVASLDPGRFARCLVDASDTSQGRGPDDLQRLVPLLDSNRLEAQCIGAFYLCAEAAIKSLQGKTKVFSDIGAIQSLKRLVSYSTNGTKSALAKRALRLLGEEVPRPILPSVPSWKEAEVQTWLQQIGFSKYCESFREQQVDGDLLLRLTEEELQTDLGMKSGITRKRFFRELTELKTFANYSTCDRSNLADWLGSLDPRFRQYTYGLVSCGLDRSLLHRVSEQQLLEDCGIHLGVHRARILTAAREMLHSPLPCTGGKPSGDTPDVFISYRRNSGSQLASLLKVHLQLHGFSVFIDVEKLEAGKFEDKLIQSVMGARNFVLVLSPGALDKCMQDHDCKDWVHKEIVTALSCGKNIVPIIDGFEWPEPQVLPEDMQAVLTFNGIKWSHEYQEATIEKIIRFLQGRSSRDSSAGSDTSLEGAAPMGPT
# Biological target: SARM1 (ARM-SAM-TIR, full length SARM1) (Homo sapiens, UniProt Q6SZW1)
# Conditions: read-out: SARM1 IC50; ARM-SAM-TIR lysate 5 μg/mL from NRK1-HEK293T cells, 2 h pre-incubation, 5 uM NAD+, 2 hr room temperature
row,Compound,IC50
1,"N#Cc1c(-c2ccncc2)n[nH]c1N1CCC(Cc2ccc(F)c(F)c2)C1=O (single isomer, unassigned)",> 1000 nM
2,"[2H]C1(Cc2cnc(Cl)c(F)c2)C(=O)N(c2cc(-c3ccncc3)n[nH]2)C([2H])([2H])C([2H])([2H])C1([2H])[2H] (single isomer, unassigned)",51 to 100 nM
3,"O=C1C(Cc2ccc(Cl)nc2)CCN1c1[nH]nc(-c2ccncc2)c1F (single isomer, unassigned)",< 50 nM
4,"O=C1C(Cc2ccc(Cl)c(F)c2)CCN1c1cc(-c2ccncc2)n[nH]1 (single isomer, unassigned)",< 50 nM
5,[2H]C1([2H])N(c2cc(-c3ccncc3)n[nH]2)C(=O)[C@]([2H])(Cc2ccc(Cl)nc2)C([2H])([2H])C1([2H])[2H],< 50 nM
6,"O=C1C(Cc2cnc(Cl)c(F)c2)CC(F)(F)CN1c1cc(-c2ccncc2)n[nH]1 (single isomer, unassigned)",101 to 500 nM
7,"O=C1C(Cc2ccc(Cl)cc2)CCN1c1cc(-c2ccncc2)n[nH]1 (single isomer, unassigned)",< 50 nM
8,[2H]C1([2H])N(c2cc(-c3ccncc3)n[nH]2)C(=O)[C@@]([2H])(C([2H])([2H])c2ccc(F)nc2)C([2H])([2H])C1([2H])[2H],101 to 500 nM
9,"O=C1C(Cc2ccc(Cl)nc2)CC(F)(F)CN1c1cc(-c2ccncc2)n[nH]1 (single isomer, unassigned)",101 to 500 nM
10,"Cc1c(-c2ccncc2)n[nH]c1N1CCC(Cc2ccc(F)nc2)C1=O (single isomer, unassigned)",501 to 1000 nM
11,"O=C1C(Cc2ccc(Cl)nc2)CCN1c1cc(-c2ccncc2)n[nH]1 (single isomer, unassigned)",< 50 nM
12,"O=C1C(Cc2ccc(Cl)c(F)c2)CCCN1c1nc(-c2ccncc2)n[nH]1 (single isomer, unassigned)",< 50 nM
13,"[2H]C([2H])(c1cnc(Cl)c(F)c1)C1([2H])C(=O)N(c2cc(-c3ccncc3)n[nH]2)C([2H])([2H])C([2H])([2H])C1([2H])[2H] (single isomer, unassigned)",< 50 nM
